## Ab-14 light chain CDR variants: yeast mating affinities

Values reported by Li et al. 2023, doi:10.1038/s41467-023-39022-2 (FLAb copy).

Antigen: PDVDLGDISGINAS, a 14-residue peptide of the SARS-CoV-2 spike HR2 region.

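The parent was found by panning a naive human phage display library on the peptide. These sequences belong to a second round, designed from the earlier measurements on random variants of the parent. Group labels follow the data file (Ctrl: baseline library sampled from a position-specific scoring matrix, with some repeated check sequences; GP: Gaussian process model; Gen: genetic algorithm; a sequence that several methods proposed may carry one label only). The assay is AlphaSeq: two haploid yeast populations carry antibody and antigen on their surface. Binding brings cells together so that they mate, and sequencing counts the barcode pairs among the diploids. Scores were corrected for input abundance and mapped to Kd with protein pairs of known affinity run in the same pool. Mating was done six times.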

Parent scFv Ab-14: VH joined to VL by three GGGGS repeats. Changes lie in the light chain CDRs alone.
VH: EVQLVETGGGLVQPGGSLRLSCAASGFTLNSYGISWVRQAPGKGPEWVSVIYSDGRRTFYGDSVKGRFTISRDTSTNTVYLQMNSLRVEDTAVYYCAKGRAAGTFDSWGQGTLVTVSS
VL: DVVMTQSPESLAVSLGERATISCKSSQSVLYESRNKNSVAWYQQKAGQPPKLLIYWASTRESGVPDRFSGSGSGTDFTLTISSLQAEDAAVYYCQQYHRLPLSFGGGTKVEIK

Substitutions are numbered in sequence along the VL above, starting at 1 (not Kabat). Values are log10 of the apparent Kd in nM; lower means stronger binding. Replicates are averaged; those with no signal do not enter the mean. An entry "n.d." has no value in the source: the pair was not observed among the diploids in that replicate. This suggests poor binding but is not conclusive. Where one sequence has several entries in the source, the replicates are listed entry by entry, parted by semicolons.

changes,group,log10 Kd (nM) by replicate,mean log10 Kd (nM),empty controls
S25Q Y31G N37R W56E,Ctrl,0.27 / 0.21 / 0.16 / -0.04 / -0.13 / 0.45,0.15,0 of 18
L30E K36S,Ctrl,0.88 / 0.84 / 0.50 / 0.73 / 0.74 / 0.97,0.78,0 of 18
W56F E61Y,Ctrl,2.11 / 2.53 / n.d. / 1.81 / 1.85 / 1.49,1.96,0 of 18
V29C L30W W56E S62K,Ctrl,0.52 / 0.22 / 0.28 / 0.16 / 0.54 / 0.19,0.32,1 of 18 (2.59)
S25M S26I A57D Q95G,Ctrl,n.d. / n.d. / n.d. / n.d. / 2.42 / n.d.,2.42,0 of 18
W56S Y97H L102F,Ctrl,0.82 / n.d. / 1.56 / 2.29 / 1.39 / 0.89,1.39,2 of 18 (2.00)
S25L L102I,Ctrl,1.06 / 0.74 / 0.74 / 0.80 / 0.65 / 0.55,0.76,1 of 18 (2.68)
V29F W56D,Ctrl+GP_Gen,0.08 / -0.11 / 0.02 / -0.18 / 0.10 / 0.04; -0.11 / -0.06 / -0.17 / -0.19 / -0.18 / -0.07,-0.07,1 of 36 (4.13)
S28E R34F W56D Q96E L100M,Ctrl,1.34 / 1.28 / 0.92 / 1.58 / 1.24 / 1.11,1.25,0 of 18
S25I K36N Q96N R99K S103Y,Ctrl,n.d. / 2.87 / n.d. / 2.09 / 1.51 / n.d.,2.16,1 of 18 (1.66)
V29W L30D K36P Q95Y,Ctrl,n.d. / n.d. / 2.78 / 3.49 / 2.76 / n.d.,3.01,1 of 18 (2.09)
Q27V V29Q E32T S58D Y97D L102F,Ctrl,n.d. / 2.24 / n.d. / 2.52 / 2.10 / 1.70,2.14,0 of 18
R34V E61S Y97A,Ctrl,n.d. / 3.95 / n.d. / n.d. / n.d. / n.d.,3.95,1 of 18 (1.51)
Y31I E32M K36F W56H,Ctrl,1.68 / 2.08 / 0.82 / 1.04 / 0.82 / 1.63,1.34,0 of 18
K24Q V39I W56N,Ctrl,0.73 / 0.86 / 1.04 / 0.23 / 0.63 / 1.04,0.76,1 of 18 (2.16)
S26P W56S H98V,Ctrl,0.06 / -0.03 / -0.19 / -0.38 / -0.28 / 0.06,-0.13,1 of 18 (2.57)
N35D T59I,Ctrl,0.69 / 1.48 / 1.33 / n.d. / 1.30 / 1.02,1.16,2 of 18 (1.96)
K24Q V29Y S38N S103T,Ctrl,n.d. / n.d. / n.d. / n.d. / n.d. / 2.34,2.34,1 of 18 (2.21)
S28E Y31W S38I,Ctrl,n.d. / n.d. / n.d. / n.d. / n.d. / n.d.,n.d.,0 of 18
L30F A40H S103L,Ctrl,n.d. / n.d. / n.d. / n.d. / n.d. / n.d.,n.d.,0 of 18
E32H S62H,Ctrl,1.30 / 1.07 / 1.19 / 1.21 / 1.33 / 1.63,1.29,0 of 18
S26N N37Q S103R,Ctrl,n.d. / n.d. / n.d. / n.d. / n.d. / n.d.,n.d.,2 of 18 (3.04)
S25F S26L S28Q V29L L30W K36H,Ctrl,n.d. / n.d. / n.d. / n.d. / n.d. / 1.64,1.64,1 of 18 (1.12)
L30T S58T,Ctrl,n.d. / n.d. / n.d. / n.d. / n.d. / n.d.,n.d.,1 of 18 (2.21)
W56N S58E S103G,Ctrl,1.12 / 1.49 / 1.49 / 1.22 / 1.51 / 1.29,1.35,1 of 18 (2.94)
S25A R34D N37F W56G,Ctrl,0.73 / 1.10 / 0.87 / 0.74 / 0.82 / 1.09,0.89,1 of 18 (2.42)
S25Q V29W Y31F S33H K36P W56F A57L H98N L102E,Ctrl,n.d. / n.d. / n.d. / n.d. / n.d. / 2.40,2.40,1 of 18 (2.89)
V29T Y31S P101Y,Ctrl,n.d. / n.d. / n.d. / n.d. / n.d. / n.d.,n.d.,0 of 18
S33D W56H S62R H98A,Ctrl,0.88 / 1.02 / 0.86 / 0.96 / 1.46 / 1.15,1.06,1 of 18 (1.14)
Y31M K36N E61A Q96D H98Q,Ctrl,n.d. / n.d. / n.d. / 1.62 / 2.12 / n.d.,1.87,0 of 18
Y31I R34V,Ctrl,1.15 / 0.90 / 2.20 / 0.97 / 1.04 / 1.51,1.30,0 of 18
E32T N35C N37A,Ctrl,n.d. / n.d. / n.d. / n.d. / n.d. / n.d.,n.d.,0 of 18
S25L S26L N37D S58M,Ctrl,n.d. / n.d. / n.d. / n.d. / n.d. / n.d.,n.d.,0 of 18
Q27E L30T A57G,Ctrl,1.47 / 0.80 / 1.03 / 0.60 / 0.85 / 0.90,0.94,0 of 18

Picked from the list: the 3 lowest averages where every replicate gave a value.

changes,group,log10 Kd (nM) by replicate,mean log10 Kd (nM),empty controls
S26P W56S H98V,Ctrl,0.06 / -0.03 / -0.19 / -0.38 / -0.28 / 0.06,-0.13,1 of 18 (2.57)
V29F W56D,Ctrl+GP_Gen,0.08 / -0.11 / 0.02 / -0.18 / 0.10 / 0.04; -0.11 / -0.06 / -0.17 / -0.19 / -0.18 / -0.07,-0.07,1 of 36 (4.13)
S25Q Y31G N37R W56E,Ctrl,0.27 / 0.21 / 0.16 / -0.04 / -0.13 / 0.45,0.15,0 of 18

Background: pairings of all light chain designs with three empty control strains gave a value in 4% of cases (median 2.64, 5th percentile 1.59). Values in that range, when seen in few replicates, are hard to tell from nonspecific mating. For each scFv, signals with the empty controls are counted beside the result, with their mean in brackets. The authors' rule: three or more of the six replicates give a measured affinity, fewer mean a poor binder. The range of this assay differs from that of the first round, and the authors advise against merging the two. Of ten entries with the parent sequence, four were seen in most replicates (averages 0.34 to 2.37), three in one and three in none, so single entries are noisy.